Data as given in article PMC10449848, “Structural basis of lipid-droplet localization of 17-beta-hydroxysteroid dehydrogenase 13” (Nature Communications, 2023).
Values joined by “and” are separate entries in the source; they are usually repeats but may differ in a detail not shown here. Equal entries are not always repeated.

Sequences of proteins named here, by UniProt entry; tags and fusion partners are left off. Residues count along the entry.
UniProt Q7Z5P4, 2-300 limits assumed: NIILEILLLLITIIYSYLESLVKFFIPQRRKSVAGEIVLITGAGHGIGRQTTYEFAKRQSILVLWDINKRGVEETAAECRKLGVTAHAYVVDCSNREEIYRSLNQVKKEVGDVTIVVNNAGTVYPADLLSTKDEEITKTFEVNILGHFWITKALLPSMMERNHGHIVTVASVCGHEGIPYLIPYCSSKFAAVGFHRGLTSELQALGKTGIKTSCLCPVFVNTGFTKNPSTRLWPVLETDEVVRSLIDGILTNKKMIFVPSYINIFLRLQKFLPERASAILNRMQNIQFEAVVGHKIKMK

Target: human HSD17B13 (Homo sapiens, UniProt Q7Z5P4)
Assay: Thermal shift assay (static light scattering, Tagg), human HSD17B13
Assay type: binding
Details: for Tagg, individual measurements: 10.4 µM protein; for deltaTagg: 500 uM NAD, Tagg(compound + NAD+) - Tagg(buffer + NAD+); for dTagg: no NAD, vs buffer

SMILES	Tagg, individual measurements (100 µM ligand + 500 µM NAD+)	deltaTagg (100 µM ligand)	dTagg (100 µM ligand)	Tagg, individual measurements (100 µM ligand, buffer without NAD+)
O=C(NC[C@]1(O)CC[C@H](COCc2ccccc2)CC1)c1ccc(O)c(F)c1 (relative stereo)	52.9 °C (2×) and 52 °C and 52.8 °C	11	1.858	
O=C(NC[C@]1(O)CC[C@H](CCOc2ccccc2)CC1)c1ccc(O)c(F)c1 (relative stereo)	53.5 °C (2×) and 53.7 °C and 52.7 °C	11.7	0.9333	40.1 °C and 40.3 °C and 41.8 °C (2×)
Cc1ccccc1OC[C@H]1CC[C@@](O)(CNC(=O)c2ccc(O)cc2)CC1 (relative stereo)		5.8	0.5833	
